Experimental data published in article PMC10400593, “Molecular insights into Spindlin1-HBx interplay and its impact on HBV transcription from cccDNA minichromosome” (Nature Communications, 2023).

What was measured:
[1] = system: Spindlin1; assay: Co-immunoprecipitation of Flag-Spindlin1 with HA-HBx, HEK 293 T cells; assay type: cell-based, human; settings: anti-Flag M2 beads, WB
[2] = molecular target: human Spindlin1_50–262 (Homo sapiens, UniProt Q9Y657); assay type: binding; design: Human Spindlin1_50–262 was cloned into pGEX-6P-1 vector containing an N-terminal GST tag; GST (N, cleaved yes); made in house; host or cells: E. coli BL21(DE3); settings: free wild-type Spindlin1_50–262
Procedure: Cells were harvested and lysed in lysis buffer: 0.2 M NaCl, 20 mM Tris, pH 8.0 containing 1 mM fresh PMSF. After centrifugation, the GST-tagged Spindlin1_50–262 was purified by a GST affinity column and then the GST tag was cleaved on-column by a home-made P3C protease overnight. The tag-free protein was collected for an anion-exchange chromatography over a HiTrap Q HP column and Superdex G75 columns (GE Healthcare). The Spindlin1_50–262 protein was concentrated to 25 mg/ml in 0.15 M NaCl, 20 mM Tris, pH 8.0, aliquoted and stored at −80 °C for future use. All Spindlin1_50–262 mutants were generated by the QuikChange site-directed mutagenesis strategy and purified using the same procedure as described above.
(§1) Calorimetric experiments were conducted at 25 °C with a MicroCal PEAQ-ITC instrument (Malvern Instruments) as previously described. The Spindlin1_50–262 samples were extensively dialyzed against the buffer containing 20 mM HepesNa (pH 7.5) and 150 mM NaCl. Protein concentration was determined by absorbance spectroscopy at 280 nm. Peptide concentrations were determined by weighing in large quantities. Each ITC titration consisted of 17 successive injections with 0.4 μl for the first and 2.4 μl for the rest. The intervals between injections were 180 s, and the stirring speed was 750 rpm. […] Acquired calorimetric titration data were fitted at 95% confidence and analyzed using Origin 7.0 (GE Healthcare) using the One Set of Binding Sites fitting model. Data represent the mean ± SE. Detailed thermodynamic parameters of each titration are summarized in the Supplementary Table 2.

[3] = molecular target: Spindlin1_50-262 & HBx2-21 (Homo sapiens, UniProt Q9Y657); settings: versus free Spindlin1_50–262
Procedure: Cells were harvested and lysed in lysis buffer: 0.2 M NaCl, 20 mM Tris, pH 8.0 containing 1 mM fresh PMSF. […] The tag-free protein was collected for an anion-exchange chromatography over a HiTrap Q HP column and Superdex G75 columns (GE Healthcare).
as §1, with “Protein” for “Calorimetric experiments were conducted at 25 °C with a MicroCal PEAQ-ITC instrument (Malvern Instruments) as previously described. The Spindlin1_50–262 samples were extensively dialyzed against the buffer containing 20 mM HepesNa (pH 7.5) and 150 mM NaCl. Protein”

Row | Substance | Binding in words (ITC) [2] | Change of histone peptide affinity on HBx2–21 engagement [3] | further results
1 | HBx: full-length HA-tagged WT HBx |  |  | Interaction with Spindlin1 (Co-IP) [1]: confirmed in HEK 293 T cells by immunoprecipitation assay
2 | AARLCCQLDSARDVLLLRPF-NH2 [WHx, woodchuck HBx N-terminal motif peptide] | micromolar level binding |  | 
3 | Ac-GKGGAKRHRK (me3)VLRDNIQGIT-NH2 [H411-30 K20me3] |  | unchanged affinities | 
4 | AARLCCQLDPARDVLCLRPV-NH2 [HBx-D2-21, HBx-D N-terminal motif peptide] | micromolar level binding |  | 
5 | AARLCCQLDSSRDVLLLRPL-NH2 [GSHBx, ground squirrel HBx N-terminal motif peptide] | micromolar level binding |  | 
6 | ARTK(m e3)QTAR(me2a)KSTGGKAPRKQL-NH2 [H31-20 K4me3R8me2a] |  | unchanged affinities | 
7 | ARTK(m e3)QTARK(me2)STGGKA-NH2 [H31-15 K4me3K9me2] |  | about threefold enhancement in binding | 
